Data published in patent US20190382481A1 (Janssen / Centocor, published 2019).

Chains of the proteins cited; added tags and fusions are not shown. A line that says so, or that is headed by a name, gives the form on record, which may keep a tag or linker. Residues count along the entry.
UniProt P20138, 18-364 limits assumed: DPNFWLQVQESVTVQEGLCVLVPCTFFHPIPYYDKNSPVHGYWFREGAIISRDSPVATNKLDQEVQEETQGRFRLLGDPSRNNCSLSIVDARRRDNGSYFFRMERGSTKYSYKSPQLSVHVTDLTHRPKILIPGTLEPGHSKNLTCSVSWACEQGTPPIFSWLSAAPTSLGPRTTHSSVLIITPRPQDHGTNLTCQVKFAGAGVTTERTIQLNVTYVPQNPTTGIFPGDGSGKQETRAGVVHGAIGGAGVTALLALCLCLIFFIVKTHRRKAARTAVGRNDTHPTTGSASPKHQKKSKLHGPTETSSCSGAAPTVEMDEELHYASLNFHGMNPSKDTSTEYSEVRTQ
UniProt P20138, 18-259 limits assumed, form in doubt: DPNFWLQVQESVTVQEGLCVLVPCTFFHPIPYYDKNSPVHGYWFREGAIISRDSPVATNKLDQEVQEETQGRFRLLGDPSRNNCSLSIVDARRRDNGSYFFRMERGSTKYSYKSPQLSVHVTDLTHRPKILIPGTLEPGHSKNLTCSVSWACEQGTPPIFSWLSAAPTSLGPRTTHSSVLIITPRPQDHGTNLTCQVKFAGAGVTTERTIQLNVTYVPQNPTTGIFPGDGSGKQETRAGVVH

Tests used:
[1] = target: T1, Cyno CD33 full length (over-expressed on transduced HEK293F / HEK 293T cells) (cyno); test: flow cytometry, HEK293F cells expressing cyno CD33
T1 construct: also called cyCD33; cyno CD33 expressing cells
Experimental: (§1) OMNIRat antibodies identified via immunization, v-region cloned and subsequently expressed and purified were characterized further for binding to CD33 expressing cells and binding to recombinant antigens. The purified antibodies were assessed for binding to stably transfected HEK293F cells expressing human CD33 or cyno CD33 (generation described above) along with the parental HEK293F as negative control. Cells were harvested from tissue culture flasks using non-enzymatic dissociation buffer (Thermo Scientific). The flasks were rinsed twice with PBS and dissociation buffer was added to the flask, and the flask was incubated for 10 minutes at 37° C. until the cells became non-adherent. The cells were centrifuged at 300 g for 5 minutes and resuspended at 1.0×10⁶ cells/ml in staining buffer (Becton Dickinson; Franklin Lakes, N.J.). 50,000 cells/well of each cell type was plated in 50 μl of staining buffer in round bottom plates (Becton Dickinson). 50 μl of 2× concentration test mAb or isotype control was added at 3 dilutions and zero (120 nM, 12 nM, and 1.2 nM and 0 nM), and the resultant solution was incubated 30 min at 4° C. 100 μl staining buffer was added to all wells of each plate, the plates were spun at 300 g for 5 min, the buffer was removed, 200 μl staining buffer was added to all wells of each plate, the plates were spun at 300 g for 5 min, and the buffer was removed. 50 μl of 2 μg/ml of Goat-anti-human Fc AF647 secondary antibody (Jackson Immunoresearch; West Grove, Pa.) was added to all wells of the plates, and the plates were incubated for 30 min at 4° C. 100 μl staining buffer was added to all wells of the plates, the plates were spun at 300 g for 5 min, and the buffer was removed. 200 μl running buffer (running buffer is Staining buffer, 1 mM EDTA, 0.1% Pluronic Acid) was added to all wells of the plates, the plates were spun at 300 g for 5 min, and the buffer was removed. 30 ul running buffer containing Sytox Green live/dead dye (ThermoFisher) was added to all wells with cells and the plates were read on an iQue IntelliCyt flow cytometer. Cells were gated on forward vs. side scatter to eliminate debris, then on singlets and then on live cells which excluded the Sytox stain. Antibody binding was assessed by the mean fluorescence intensity in the AF647 channel.

Cyno CD33 ECD-HSA [2] = target: T2, Cyno CD33 ECD-HSA (cyno); test: SPRi off-rate screen (IBIS MX96), mAb captured via anti-human Fc, C33W1 as analyte
T2 construct: Cyno CD33 ECD (Genbank printed as XP_0055901381) fused to HSA (C58S) and six-histidine tag; also called C33W1
Experimental: To begin assessing the biophysical binding properties of the purified mAbs an off-rate screen was performed. 76 OMNIRat anti-CD33 mAbs were tested for binding to recombinant human CD33 ECD-HSA (C33W2) and cyno CD33 ECD-HSA (C33W1) proteins (Janssen production) and the off-rate was measured by IBIS MX96 SPRi array platform (Carterra; Newton, Pa.). […] The sensor chip was transferred to the Continuous Flow Microspotter (CFM) unit to capture each anti-CD33 mAb at 10 μg/ml for 10 minutes. Binding was measured on IBIS SPRi by single cycle kinetics without regeneration. Each antigen concentration series (3 μM in 3 fold dilution series) was sequentially injected from low (0.46 nM) to high concentrations (3 μM) to bind to captured mAbs with an association time of 5 minutes and dissociation time of 15 minutes using PBST (PBS with 0.005% Tween) as running buffer. The raw binding data (.trix file format) were referenced and aligned using SprintX software (Wasatch, Ver 1.9.3.2), then exported (.ibmx file format) to Scrubber software (Ver. 2.0) for 1:1 binding kinetic analyses (Wasatch, version 2.0.0.33) to extract the koff results.

[3] = target: T3, Human CD33 full length (over-expressed on transduced HEK293F cells) (human, UniProt P20138); test: flow cytometry, HEK293F cells expressing human CD33
T3 construct: also called huCD33; human CD33 expressing cells
Experimental: as §1

Cyno CD33 ECD-HSA [4] = target: T4, Cyno CD33 ECD-HSA (cynomolgus monkey); test: ProteOn SPR; mAb captured on anti-human Fc, antigen as analyte; 1:1 fit
T4 construct: Cyno CD33 ECD fused to HSA (C58S) and six-histidine tag; also called C33W1
Experimental: (§2) The panel of mAbs was then further characterized for full affinity analysis as well as epitope binning. The binding of anti-CD33 mAbs to recombinant human CD33 ECD-HSA (C33W2) and cyno CD33 ECD-HSA (C33W1) was measured by ProteOn SPR (Bio-Rad). […] Human and cyno CD33-HSA proteins at 0.3 μM concentration in 3-fold dilution series of 5 concentrations flew in as analyte to bind to captured mAbs in the horizontal orientation. A buffer sample was also injected in the 6th channel to monitor the dissociation of captured mAb and baseline stability. […] The raw biding data were processed by double referencing after subtracting the response data from: 1) the inter-spot to correct for the non-specific interactions between the Ag and the empty chip surface; 2) the buffer channel to correct for baseline drifting due to the dissociation of captured mAb surface over time.

Human CD33 ECD-HSA = target: T5, Human CD33 ECD-HSA (human, UniProt P20138, in part); test: as above
T5 construct: Human CD33 ECD (Uniprot P20138) fused at the C-terminus to monomeric HSA (C58S) and a six-histidine tag; also called C33W2; huCD33 ECD-HSA; not shown: HSA (C58S) carrier, its junction or linker to the ECD, and the layout of the His tag
Experimental: as §2

MFI at 0 nM mAb (background) [1]	MFI at 0.6 nM mAb [1]	MFI at 6 nM mAb [1]	MFI at 60 nM mAb [1]	koff (Cyno CD33 ECD-HSA [2])	MFI at 0 nM mAb (background) [3]	MFI at 0.6 nM mAb [3]	MFI at 6 nM mAb [3]	MFI at 60 nM mAb [3]	Kd (Cyno CD33 ECD-HSA [4])	koff (Cyno CD33 ECD-HSA [4])	kon (Cyno CD33 ECD-HSA [4])	Kd (Human CD33 ECD-HSA)	Binder
99.8 MFI	3100 MFI	9690 MFI	21100 MFI	0.00121 s⁻¹	115 MFI	7560 MFI	54100 MFI	200000 MFI					C33B64 (antibody, human IgG1, lambda, V domains shown, huIgG1 F405L; OMNIRat campaign; also called C33H52/N46L109) VH: QLQLQESGPGLVKPSETLSLTCTVSGGSIRGSSYYWGWVRQPPGKGLEWIGSIYSSGNTYYNPSLKSRVTISVDTSKNQFSLKLSSVTAADTALYYCARLGSLVVVPAAMSFDYWGQGTLVTVSS VL: not shown
									2.15 nM	0.00132 s⁻¹	616000 M⁻¹ s⁻¹		C33B75 (antibody, human IgG1, lambda, V domains shown, huIgG1 F405L; HC C33H70, LC N46L109; also called C33F80) VH: QLQLQESGPGLVKPSETLSLTCTVSGGSIRGSSYYWGWIRQPPGKGLEWIGSIYSSGNTYYNPSLKSRVTISVDTSKNQFSLKLSSVTAADTAVYYCARLGSLVVVPAAMSFDYWGQGTLVTVSS VL: not shown
124 MFI	1710 MFI	5580 MFI	12200 MFI	0.0012 s⁻¹	95.9 MFI	4520 MFI	29600 MFI	164000 MFI					C33B75 (antibody, human IgG1, lambda, V domains shown, huIgG1 F405L; OMNIRat campaign; also called C33H70/N46L109) VH: QLQLQESGPGLVKPSETLSLTCTVSGGSIRGSSYYWGWIRQPPGKGLEWIGSIYSSGNTYYNPSLKSRVTISVDTSKNQFSLKLSSVTAADTAVYYCARLGSLVVVPAAMSFDYWGQGTLVTVSS VL: not shown
									1.71 nM	0.00101 s⁻¹	590000 M⁻¹ s⁻¹	5.1 nM	C33B64 (antibody, human IgG1, lambda, V domains shown, huIgG1 F405L; HC C33H52, LC N46L109; also called C33F69) VH: QLQLQESGPGLVKPSETLSLTCTVSGGSIRGSSYYWGWVRQPPGKGLEWIGSIYSSGNTYYNPSLKSRVTISVDTSKNQFSLKLSSVTAADTALYYCARLGSLVVVPAAMSFDYWGQGTLVTVSS VL: not shown
